Source: US7994326B2 (Northwestern University, priority 2003, dated 2011)

Molecular target: T1, rat nNOS (Rattus norvegicus, UniProt P29476)
T1 construct: made in house; host or cells: E. coli (plasmid pCWnNOS)
Assay: NOS enzyme inhibitory assay (hemoglobin capture), nNOS
Assay type: biochemical
Conditions: Table 1b

| Structure (SMILES) | Ki |
| --- | --- |
| Cc1cc(N)nc(C[C@H]2CNC[C@H]2NCCNCCc2ccccc2)c1 (racemic) [Compound P-62] | 24 nM |
| Cc1cc(N)nc(C[C@H]2CNC[C@@H]2NCCNCCc2ccccc2)c1 (racemic) [Compound P-67] | 88 nM |
| Cc1cc(N)nc(C[C@H]2CNC[C@H]2OCC(=O)NCCc2cccc(F)c2)c1 (racemic) [Compound P-79, (±)-2-{cis-4-[(6-amino-4-methylpyridin-2-yl)methyl]pyrrolidin-3-yloxy}-N-(3-fluorophenethyl)acetamide] | 2300 nM |
